Experimental data taken from US7501542B2, “Highly-packed polycationic ammonium, sulfonium and phosphonium lipids” (Invitrogen Corporation, priority 1993, dated 2009).

Tests used:
NIH-3T3 cells = assay: Transfection of NIH-3T3 cells with pCMV β-gal DNA, in situ β-galactosidase staining; assay type: cell-based
Protocol: (§1) Standard tissue culture methods were employed. […] All cultures were incubated at 37° C., 5% CO2.
(§2) Antibiotics were never present during lipid-mediated transfections.

CHO-K1 cells = assay: Transfection of CHO-K1 cells with pCMV β-gal DNA, in situ β-galactosidase staining; assay type: cell-based, Chinese hamster
Protocol: as §1, §2

Jurkat cells = assay: Transfection of Jurkat cells with pCMVCAT DNA, CAT activity of cell lysates; assay type: cell-based
Protocol: as §1
For each transfection sample, 1×10^6 Jurkat cells were centrifuged in a microfuge tube. The cell pellets were suspended with the lipid-DNA complex solutions and transferred to wells of 12-well plates. […] After approximately 24 hr, one ml growth medium containing 10% FBS, 50 ng/ml PMA and 1 μg/ml PHA was added to each well. Antibiotics were never present during lipid-mediated transfections. Cells were harvested at approximately 48 hr post-transfection by centrifugation. Cell lysates were prepared by resuspending cell pellets at 0° C. in 1 M Tris-HCl pH 8.0 containing 0.1% Triton X-100 and 5 μl aliquots were assayed for chloramphenicol acetyltransferase (“CAT”)activity.
Cell lysates were assayed for CAT activity as described by Neumann et al. (1987) BioTechniques 5:444. Cells were rinsed with PBS and frozen at −70° C. in 0.5-1.5 ml 0.1% Triton X-100 in 0.1 M Tris, pH 8.0. After rapid thawing at 37° C., the lysate was cleared by centrifugation. When more than 5 μl of a 1 ml extract was to be used in the assay, the extract was heated to 65° C. for 10 minutes to inactivate any deacetylases present, and centrifuged again. When necessary, the extract was diluted in 0.1 M Tris pH 7.8-8.0. […]

[1] = test system: primary human fibroblasts; assay: Transfection of primary human fibroblasts with pCMV β-gal DNA, in situ β-galactosidase staining; conditions: primary human fibroblast cells

Measured: toxicity to transfected cells

N,N,N′,N′-tetramethyltetrapalmyl-sperminetetrammonium iodide [Compound 3]
minimal toxicity: all assays above
